For the test, the system named is standard pool of bacteria, yeasts, and molds obtained from American Type Culture Collection (ATCC) that are common contaminants in coatings.

As to `CC(C)(C)OO` [i-BHP, t-butyl hydroperoxide], the “ability to act as a preservative” value is reported as “insufficient to act as a preservative” and the “effectiveness as preservative for the aqueous dispersion of opaque polymers” value was “effective”. For `OO` [Example H2O2, hydrogen peroxide], the “effectiveness in all heat-aged challenge tests” value is “effective”.

These data come from patent US20260275055A1, “METHOD FOR PREPARING AN AQUEOUS DISPERSION OF BIOCIDE-FREE ORGANIC OPACIFYING PIGMENT PARTICLES” (priority 2022, published 2026).
